{
  "sequences": {"note": "Sequences of proteins named here, by UniProt entry; tags and fusion partners are left off. Residues count along the entry.", "UniProt P49761, 127-484 limits assumed": "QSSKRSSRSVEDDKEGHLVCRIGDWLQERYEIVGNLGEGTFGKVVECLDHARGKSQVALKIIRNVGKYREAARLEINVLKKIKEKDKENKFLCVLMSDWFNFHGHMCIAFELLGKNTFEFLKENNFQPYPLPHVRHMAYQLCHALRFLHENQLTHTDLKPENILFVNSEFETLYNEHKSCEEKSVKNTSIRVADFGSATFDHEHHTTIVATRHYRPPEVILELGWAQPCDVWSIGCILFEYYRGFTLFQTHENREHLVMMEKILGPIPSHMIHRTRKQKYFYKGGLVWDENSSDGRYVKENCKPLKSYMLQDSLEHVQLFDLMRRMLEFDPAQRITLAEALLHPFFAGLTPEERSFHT"},
  "source": "paper PMC3145970",
  "about": "“Specific CLK Inhibitors from a Novel Chemotype for Regulation of Alternative Splicing” (Chemistry & Biology, 2011)",
  "key": {"CLK3": {"target": "CLK3 (Homo sapiens, UniProt P49761)", "assay": "Coupled-enzyme (PK/LDH) kinase inhibition assay", "type": "biochemical", "set-up": "CLK3 (residues 275–632) were subcloned by ligation independent cloning; hexahistidine tag (TEV-cleavable) (cleaved yes); made in house; host or cells: E. coli BL21(DE3)"}, "DYRK1A": {"target": "DYRK1A (Homo sapiens, UniProt Q13627)", "assay": "Coupled-enzyme (PK/LDH) kinase inhibition assay", "type": "biochemical", "details": "0.1 mM ATP, 25°C; average from three independent experiments"}},
  "note": "Where two headings read alike, the source gives them in different places.",
  "data": [
    {"compound": "CCOC(=O)c1c(C(C#N)=CN)c2ccc(Cl)c(Cl)c2n1C", "note": "(mixture of isomers) [KH-CB20, (E/Z)-Ethyl 3-(2-Amino-1-Cyanovinyl)-6,7-Dichloro-1-Methyl-1H-Indole-2-Carboxylate]", "values": [
      {"measurement": "IC50", "setting": "CLK3", "value": "488 ± 120", "unit": "nM"}
    ]},
    {"compound": "CCOC(=O)c1c(/C(C#N)=C\\N)c2ccc(Cl)c(Cl)c2n1C", "note": "[KH-CB19, (E)-Ethyl 3-(2-Amino-1-Cyanovinyl)-6,7-Dichloro-1-Methyl-1H-Indole-2-Carboxylate]", "values": [
      {"measurement": "IC50", "setting": "CLK3", "value": "530 ± 140", "unit": "nM"}
    ]},
    {"compound": "CCN1/C(=C/C(C)=O)Sc2ccc(OC)cc21", "note": "[TG003]", "values": [
      {"measurement": "IC50", "setting": "CLK3; 0.1 mM ATP, 25°C, average from three independent experiments, read-out: IC50 CLK3", "value": "> 4000", "unit": "nM"},
      {"measurement": "IC50", "setting": "DYRK1A", "value": "156 ± 23", "unit": "nM"}
    ]}
  ]
}
